Values quoted from earlier work as cited in article PMC10060287 (Pharmacological Reports, 2023).

Amino acid sequences for entries named in this document (tags omitted).
UniProt P33535, whole entry: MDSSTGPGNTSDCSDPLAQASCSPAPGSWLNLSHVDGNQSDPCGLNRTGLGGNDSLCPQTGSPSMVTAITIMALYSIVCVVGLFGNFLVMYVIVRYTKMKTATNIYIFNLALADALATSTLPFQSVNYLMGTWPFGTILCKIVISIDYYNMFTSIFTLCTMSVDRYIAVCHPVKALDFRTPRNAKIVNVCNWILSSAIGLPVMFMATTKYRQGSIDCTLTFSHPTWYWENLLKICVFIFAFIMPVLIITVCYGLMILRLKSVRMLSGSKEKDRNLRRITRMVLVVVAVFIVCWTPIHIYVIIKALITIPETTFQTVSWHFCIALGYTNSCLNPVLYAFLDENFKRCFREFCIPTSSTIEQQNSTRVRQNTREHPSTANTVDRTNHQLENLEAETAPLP

Target: µ-opioid receptor (µOR) (Rattus norvegicus, UniProt P33535)
Parameters: method as in Handa 1981
Conditions: comparison with G-peptide IC50; b107 ref Handa 1981; cited from earlier work

DAMGO
activity of the reference ligand DAMGO: subnanomolar activity
